For this test, the target named is Inositol monophosphatase 1 (Bos taurus, UniProt P20456). As to the kind of experiment: Inhibitory activity against myo-inositol-1-phosphatase.

Sequences of proteins named here, by UniProt entry; tags and fusion partners are left off.
UniProt P20456, whole entry, looked up: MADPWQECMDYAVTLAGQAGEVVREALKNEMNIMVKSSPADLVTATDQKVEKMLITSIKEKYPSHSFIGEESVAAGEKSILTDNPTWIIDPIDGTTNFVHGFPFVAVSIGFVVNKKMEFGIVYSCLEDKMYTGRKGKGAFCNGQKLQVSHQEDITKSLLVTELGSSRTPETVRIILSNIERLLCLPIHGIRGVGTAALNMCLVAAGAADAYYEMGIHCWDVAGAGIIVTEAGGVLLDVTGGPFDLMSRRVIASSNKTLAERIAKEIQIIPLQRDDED

Compound `CP(=O)(O)O[C@@H]1[C@H](O)C[C@@H](O)C[C@H]1OCCCCc1ccccc1O` displayed a 50% inhibitory concentration (IC50) of 87 µM.

Usually IC50 stands for the concentration that inhibits the measured activity by half. Higher therefore signals weaker potency.
